Measurements from patent publication US20030147847A1 (IMMUNEX, published 2003).

Protein sequences, listed by entry. Tags and fused reporters are not part of them. Lines headed by an entry give the natural chain unless they say otherwise; changes in a name come on top.
UniProt Q9UBK5: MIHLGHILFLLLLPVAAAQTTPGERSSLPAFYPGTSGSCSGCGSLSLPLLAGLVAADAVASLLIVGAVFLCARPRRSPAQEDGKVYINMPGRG

Key:
[1] = target: T1, NKG2D/Dap10 on transfected 293E cells (UniProt P26718 1-216; Q9UBK5 19-93); experiment: flow cytometry; NKG2D/Dap10-transfected 293E cells preincubated with 25 µg ULBP1/LZ (competitor)
T1 construct: whole, on cells; Co-expressed on 293 EBNA (293E) cells from the pDC409 vector; also called NKG2D+FLAG tagged Dap10
T1 sequence 1: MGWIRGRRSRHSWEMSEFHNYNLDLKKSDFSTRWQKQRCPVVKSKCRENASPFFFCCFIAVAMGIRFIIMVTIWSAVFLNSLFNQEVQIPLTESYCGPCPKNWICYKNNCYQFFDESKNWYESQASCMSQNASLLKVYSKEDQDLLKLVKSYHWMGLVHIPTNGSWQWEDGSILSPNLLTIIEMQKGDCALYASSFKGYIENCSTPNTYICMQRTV
T1 sequence 2: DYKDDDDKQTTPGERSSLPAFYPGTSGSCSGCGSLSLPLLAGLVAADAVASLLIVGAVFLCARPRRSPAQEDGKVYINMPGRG

[2] = target: T2, FLAG tagged Dap10 alone on transfected 293 EBNA cells (UniProt Q9UBK5 19-93); experiment: flow cytometry, transfected 293 EBNA cells, 2 µg Fc protein + goat anti-human IgG PE
T2 construct: whole, on cells
T2 sequence: T1 sequence 2

[3] = target: T3, NKG2D alone on transfected 293 EBNA cells (UniProt P26718 1-216, limits assumed); experiment: as above
T3 construct: whole, on cells
T3 sequence (looked up): T1 sequence 1

[4] = target: T1, NKG2D/Dap10 on transfected 293E cells; experiment: as above
[5] = target: T1, NKG2D/Dap10 on transfected 293E cells; experiment: flow cytometry; NKG2D/Dap10-transfected 293E cells preincubated with 25 µg hCD40L/LZ (control blocking protein)

B1: hCD40/Fc (Fc fusion, human, UniProt P25942 21-193, looked up)
chain: EPPTACREKQYLINSQCCSLCQPGQKLVSDCTEFTETECLPCGESEFLDTWNRETHCHQHKYCDPNLGLRVQQKGTSETDTICTCEEGWHCTSEACESCVLHRSCSPGFGVKQIATGVSDTICEPCPVGFFSNVSSAFEKCHPWTSCETKDLVVQQAGTNKTDVVCGPQDRLR
notes: Control Fc construct; not shown: Fc portion not described
Mean Fluorescence Intensity (MFI) [1]: 12 MFI
Mean Fluorescence Intensity (MFI) [2]: 15.6 MFI
Mean Fluorescence Intensity (MFI) [3]: 10.7 MFI
Mean Fluorescence Intensity (MFI) [4]: 13.3 MFI
Mean Fluorescence Intensity (MFI) [5]: 35 MFI
